Source: PMC3539763 (ACS medicinal chemistry letters, 2010)

Assay: binding to rat plasma

plasma protein binding: > 98%
Substance: ADX-47273
